What was measured:
silk = test: deposition of 30 pM tracer onto ceilan katia yarn, pH 8.5, 37° C., gamma counting
[1] = target: amyloid plaques in Alzheimer's disease brain tissue (homogenates and thin sections); test: filter binding on AD tissue homogenates, gamma counting

For “^125 I-βA(1-40)-OH (^125 I-labelled human β-amyloid peptide^1-40)”, the on-rate (cpm ^125 I/hour/mg silk) (silk) was 153 and the percent of tracer bound [1] was 20%.

Reference: patent US5721106A, “In Vitro method for screening β-amyloid deposition” (Regents of the University of Minnesota, priority 1994, dated 1998)
